{"source": "patent US10117890B2", "about": "“Methods and compositions for treating pain” (Academia Sinica, priority 2012, dated 2018)", "tested_on": "muscle nociceptors (ASIC3-positive muscle afferent DRG neurons expressing ISP-O)", "assay": "Whole-cell patch-clamp recording of outward currents in muscle afferent DRG neurons", "format": "cell-based, mice", "details": "peak whole-cell current; 0.1, 1, 3 and 10 μM; n=27; read-out: EC50 of SP-induced outward current (ISP-O)", "procedure": "The digested DRG neurons were washed with fetal calf serum (FCS)-free DMEM or DMEM containing 10% FCS during each treatment. Fully digested DRGs were triturated and plated on poly-L-lysine-coated cover slides. Cell cultures were maintained in a 5% CO2 incubator at 37° C.\nWhole-cell patch-clamp recordings of muscle-afferent neurons involved use of Axopatch MultiClamp 700B (Axon Instruments). Neurons with membrane potential >−40 mV were discarded. The bridge was balanced in current-clamp recording, and the series resistance was compensated 70% in voltage-clamp recording with […] 700B compensation circuitry. All experiments were performed at room temperature (21-25° C.) and completed within 30 hr post-seeding. Unless specifically mentioned, the patch pipettes were prepared in 1-5 MΩ and filled with internal solution containing (in mM) 100 KCl, 2 Nae-ATP, 0.3 Na3-GTP, 10 EGTA, 5 MgCl2, and 40 HEPES, adjusted to pH 7.4 with KOH. Recording cells were superfused in artificial cerebrospinal fluid (ACSF) by control with gravitational force. The ACSF contained (in mM) 130 NaCl, 5 KCl, 1 MgCl2, 2 CaCl2, 10 glucose, and 20 HEPES, adjusted to pH 7.4 with NaOH. Osmolarity was adjusted to 300 mOsm. The acidic ACSF was titrated to pH 6.8 by […]. […] If not specifically mentioned, drugs listed above were from Sigma Chemical (St. Louis, Mo.). […]"}
{"compound": "CSCC[C@H](NC(=O)[C@H](CC(C)C)NC(=O)CNC(=O)[C@H](Cc1ccccc1)NC(=O)[C@H](Cc1ccccc1)NC(=O)[C@H](CCC(N)=O)NC(=O)[C@H](CCC(N)=O)NC(=O)[C@@H]1CCCN1C(=O)[C@H](CCCCN)NC(=O)[C@@H]1CCCN1C(=O)[C@@H](N)CCCNC(=N)N)C(N)=O", "note": "[SP, reference compound]", "values": [{"measurement": "EC50", "value": 2600, "unit": "nM"}]}
